Apparent affinities of Ab-14 variants for a coronavirus HR2 peptide

Reference: Engelhart et al. 2022, doi:10.1038/s41597-022-01779-4. File: FLAb, binding data.

All variants were tested on one target, the spike HR2 peptide PDVDLGDISGINAS (SARS-CoV-2).

Parent scFv Ab-14: VH joined to VL by the linker GGGGSGGGGSGGGGS. Changes lie in the light chain CDRs alone.
VH: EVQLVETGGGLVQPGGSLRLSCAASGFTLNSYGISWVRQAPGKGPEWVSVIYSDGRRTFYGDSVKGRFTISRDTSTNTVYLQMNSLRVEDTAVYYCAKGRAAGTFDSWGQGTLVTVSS
VL: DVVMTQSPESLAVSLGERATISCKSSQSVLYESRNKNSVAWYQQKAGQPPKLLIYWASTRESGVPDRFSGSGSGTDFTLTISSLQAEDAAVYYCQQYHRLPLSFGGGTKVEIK

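Phage display of a naive human antibody library on the peptide gave the parent. In library AAYL50, one, two or three CDR residues were substituted; doubles and triples were drawn at random. The scFvs were displayed on barcoded MATa yeast, the peptide on MATalpha yeast. Mating (16 h, 30 °C) was followed by selection of diploids and sequencing of their barcodes. A regression on co-assayed BCL2-family reference pairs converts the normalised counts of each replicate to an apparent Kd. Mating was done three times.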

Each variant is given by its three light chain CDRs, as the data file delimits them; those of the parent are KSSQSVLYESRNKNSVA, WASTRES, QQYHRLPLS.
Affinities are written as log10 Kd with Kd in nM; a lower number is a better binder.
The mean shown is taken over the replicates in which the pair was detected.
"ND" means that the variant was in the library but no mating with the target was seen in that replicate; the authors take this as a sign of poor binding, and no number exists.

CDR-L1	CDR-L2	CDR-L3	log10 Kd (nM) by replicate	log10 Kd (nM), mean	signal with controls
ASSQVVLYESRNRNSVA	WASTRES	QQYHRLPLS	ND / ND / ND	ND	0/9
KSSQSVLYESTNKNSVA	WASTRWS	QQYHRLPLS	1.00 / 1.08 / 1.05	1.04	2/9 (5.43)
KSSQSVSYESRNKNDVA	WACTRES	QQYHRLPLS	5.82 / 3.22 / 4.25	4.43	0/9
KSSQSVLYESDMKNSVA	WASTRES	QVYHRLPLS	ND / 3.11 / ND	3.11	0/9
KSSQSVLYESRNKNSVA	RASTRES	EQYHRLPES	0.95 / 1.40 / 1.16	1.17	0/9
KMSQSYLYESRNKNSVA	WASTRES	QQQHRLPLS	ND / ND / ND	ND	0/9
KSSQSVLYEGMNKNSVC	WASTRES	QQYHRLPLS	1.26 / 1.41 / 1.47	1.38	4/9 (4.22)
KSSQSVLYESLNKNFVA	WASTRES	MQYHRLPLS	3.57 / 2.72 / 3.51	3.27	2/9 (3.76)
KSSQSVLYNSRNKTSVA	WYSTRES	QQYHRLPLS	ND / 2.91 / ND	2.91	1/9 (4.49)
KDSQSVLYEARNKNSVA	WASTRES	QQYHVLPLS	ND / ND / ND	ND	1/9 (2.59)
KSSQSVLYESRNKNSVA	LASRRET	QQYHRLPLS	1.98 / 2.12 / 2.65	2.25	0/9
KSSQSVLNESRNKNSVN	WASERES	QQYHRLPLS	4.73 / 4.19 / 5.10	4.67	4/9 (4.03)
KSSQSDLYELRNKNSVA	WNSTRES	QQYHRLPLS	4.61 / ND / 3.99	4.30	4/9 (5.18)
KSSQSVLYESRNKNLVA	WASTRES	QEVHRLPLS	6.10 / 4.98 / ND	5.54	2/9 (3.21)
KSSQSVLYESRNKNSVA	WESTRES	CQYHRDPLS	ND / 4.21 / ND	4.21	1/9 (3.86)
KSSQSVLYEMRNPNSVA	EASTRES	QQYHRLPLS	ND / ND / ND	ND	0/9
KSSQWVLYESMNKNSVP	WASTRES	QQYHRLPLS	ND / ND / ND	ND	1/9 (3.05)
KSSQSVLQESRNKNSVA	WAPTRES	QQYHRLPRS	4.19 / ND / 4.89	4.54	2/9 (3.63)
KSSQSVLYGSRNKNSVA	WGSTRES	QQYHRLPHS	ND / ND / ND	ND	0/9
KSSQSVLYESCNKNSVA	WASTRVS	QQYRRLPLS	1.15 / 1.12 / 1.18	1.15	1/9 (3.90)
KSSQSVLMESRNKNSVA	WASTREH	QQYHRLPLS	0.52 / 0.75 / 0.94	0.74	2/9 (4.22)
KSSQSVQYESRNKNSVI	WASTRES	QQYHRLPNS	ND / 2.86 / ND	2.86	0/9
KSSQSVLYESRNKNSVA	QASTRES	QHYHMLPLS	0.25 / 0.54 / 0.40	0.39	3/9 (4.56)
KSSHSVLGESRNKNSVA	WASTRES	QQYHRLPLS	0.36 / 0.60 / 0.63	0.53	4/9 (4.34)
DSSQSVLYESRTKNSVA	WASTRES	IQYHRLPLS	4.66 / 5.02 / ND	4.84	1/9 (3.61)
KSSQSVLYTWRNKNSVA	WACTRES	QQYHRLPLS	ND / ND / ND	ND	0/9
KSWFSVLYESRNKNSVA	WAKTRES	QQYHRLPLS	4.62 / ND / ND	4.62	4/9 (4.62)
NSSQSVLYESRNKNSPA	WASTRES	QQYHRRPLS	ND / 4.39 / ND	4.39	1/9 (4.07)
KSSQSVVYESRNKNSVA	WASTRES	QQYPRCPLS	1.09 / 1.15 / 0.99	1.08	1/9 (3.93)
KSSQPVLYESRNKNSVA	WTSTRES	QQYHRGPLS	0.62 / 0.86 / 0.94	0.80	2/9 (4.27)

Extract of 2 entries:

CDR-L1	CDR-L2	CDR-L3	log10 Kd (nM) by replicate	log10 Kd (nM), mean	signal with controls
KSSQSVLYESRNKNLVA	WASTRES	QEVHRLPLS	6.10 / 4.98 / ND	5.54	2/9 (3.21)
KSSQSVLYESRNKNSVA	RASTRES	EQYHRLPES	0.95 / 1.40 / 1.16	1.17	0/9

For reference, the parent read 0.65 as the reference entry and 1.68 as a member of this library.
Nonspecific signal, from three strains lacking the peptide, appeared in 18% of pairings of library AAYL50, centred on 4.19 (5% of these signals below 2.99); values are not corrected for it. The control count says in how many pairings with the empty strains this scFv gave a signal, with their mean in brackets.